The values that follow come from patent US11339169B2, “P2X3 and/or P2X2/3 compounds and methods” (Asana BioSciences, LLC, priority 2016, dated 2022).

The chains behind the UniProt entries cited, without tags or fusion partners.
UniProt P56373, whole entry: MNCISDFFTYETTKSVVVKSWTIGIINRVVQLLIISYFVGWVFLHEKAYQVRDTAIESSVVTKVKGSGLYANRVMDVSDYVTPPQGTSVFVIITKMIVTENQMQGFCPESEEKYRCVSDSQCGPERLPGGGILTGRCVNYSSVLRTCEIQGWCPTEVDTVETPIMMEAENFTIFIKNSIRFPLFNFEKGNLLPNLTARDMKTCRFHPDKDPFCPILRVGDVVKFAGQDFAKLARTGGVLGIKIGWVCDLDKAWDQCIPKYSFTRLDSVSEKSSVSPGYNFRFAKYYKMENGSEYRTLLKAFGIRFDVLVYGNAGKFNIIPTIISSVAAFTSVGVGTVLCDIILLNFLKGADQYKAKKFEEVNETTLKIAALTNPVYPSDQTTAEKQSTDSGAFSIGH
UniProt Q9UBL9, whole entry: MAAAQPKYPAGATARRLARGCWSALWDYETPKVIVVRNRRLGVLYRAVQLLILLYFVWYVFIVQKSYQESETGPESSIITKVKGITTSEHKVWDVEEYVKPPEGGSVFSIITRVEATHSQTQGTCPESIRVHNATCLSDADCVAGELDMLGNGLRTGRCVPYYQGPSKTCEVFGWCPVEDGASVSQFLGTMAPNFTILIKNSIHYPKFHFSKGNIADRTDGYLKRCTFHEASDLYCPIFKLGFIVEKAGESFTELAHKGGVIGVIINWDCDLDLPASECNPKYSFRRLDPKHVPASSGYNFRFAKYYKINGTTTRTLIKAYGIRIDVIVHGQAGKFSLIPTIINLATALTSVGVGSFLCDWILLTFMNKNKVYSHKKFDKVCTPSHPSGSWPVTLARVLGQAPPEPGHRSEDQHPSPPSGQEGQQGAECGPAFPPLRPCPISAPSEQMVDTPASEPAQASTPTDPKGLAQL

For one experiment, the target named is hP2X3 (Homo sapiens, UniProt P56373). The experiment can be described thus: FLIPR intracellular calcium assay, hP2X3. The note with it: read-out: hP2X3 IC50, human P2X3-HEK cells, agonist at EC75. (Calcium flux is commonly read through the fluorescence of an indicator in the cells.)
Another experiment deals with hP2X2/3 (Homo sapiens, UniProt P56373+Q9UBL9). Briefly: FLIPR intracellular calcium assay, hP2X2/3. The note with it: read-out: hP2X2/3 IC50, human P2X2/3-TRex293 cells, agonist at EC75.

For the compound `CCC(C)n1ncc2nc(C(N)=O)nc(N[C@@H](c3cnc4ccccc4c3)C3CC3)c21` (some centres unmarked), the results for the IC50 on hP2X3 and on hP2X2/3 were 1 to 100 nM and 1000 to 10000 nM, respectively.
